Source: ChEMBL document CHEMBL1154101, “Purinergic P2X(7) receptor antagonists: Chemistry and fundamentals of biological screening” (Bioorg Med Chem, 2009)

By UniProt entry, the sequences of proteins in these tests, tags left out. Where a name states a change or a piece, a line headed by the entry shows the natural chain unless it says otherwise.
UniProt Q99572: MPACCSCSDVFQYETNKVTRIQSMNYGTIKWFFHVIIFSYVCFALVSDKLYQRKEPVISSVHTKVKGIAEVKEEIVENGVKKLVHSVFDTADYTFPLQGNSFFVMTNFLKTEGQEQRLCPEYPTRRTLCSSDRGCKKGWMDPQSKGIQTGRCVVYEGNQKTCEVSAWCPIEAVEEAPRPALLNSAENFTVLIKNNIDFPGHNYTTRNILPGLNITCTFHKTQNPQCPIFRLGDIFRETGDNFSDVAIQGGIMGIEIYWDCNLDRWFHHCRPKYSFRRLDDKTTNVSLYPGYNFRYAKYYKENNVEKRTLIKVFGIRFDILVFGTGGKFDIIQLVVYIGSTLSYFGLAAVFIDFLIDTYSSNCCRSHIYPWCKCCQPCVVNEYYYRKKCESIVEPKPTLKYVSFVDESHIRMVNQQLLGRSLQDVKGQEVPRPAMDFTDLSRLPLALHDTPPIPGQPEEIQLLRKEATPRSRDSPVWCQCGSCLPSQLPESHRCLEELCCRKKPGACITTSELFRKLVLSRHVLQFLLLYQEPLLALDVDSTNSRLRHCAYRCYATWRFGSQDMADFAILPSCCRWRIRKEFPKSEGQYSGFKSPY

Key:
[1] = molecular target: T1, P2X purinoceptor 7 (Mus musculus, UniProt Q9Z1M0); experiment: Binding affinity at mouse P2X7 receptor
T1 sequence (Q9Z1M0 whole entry): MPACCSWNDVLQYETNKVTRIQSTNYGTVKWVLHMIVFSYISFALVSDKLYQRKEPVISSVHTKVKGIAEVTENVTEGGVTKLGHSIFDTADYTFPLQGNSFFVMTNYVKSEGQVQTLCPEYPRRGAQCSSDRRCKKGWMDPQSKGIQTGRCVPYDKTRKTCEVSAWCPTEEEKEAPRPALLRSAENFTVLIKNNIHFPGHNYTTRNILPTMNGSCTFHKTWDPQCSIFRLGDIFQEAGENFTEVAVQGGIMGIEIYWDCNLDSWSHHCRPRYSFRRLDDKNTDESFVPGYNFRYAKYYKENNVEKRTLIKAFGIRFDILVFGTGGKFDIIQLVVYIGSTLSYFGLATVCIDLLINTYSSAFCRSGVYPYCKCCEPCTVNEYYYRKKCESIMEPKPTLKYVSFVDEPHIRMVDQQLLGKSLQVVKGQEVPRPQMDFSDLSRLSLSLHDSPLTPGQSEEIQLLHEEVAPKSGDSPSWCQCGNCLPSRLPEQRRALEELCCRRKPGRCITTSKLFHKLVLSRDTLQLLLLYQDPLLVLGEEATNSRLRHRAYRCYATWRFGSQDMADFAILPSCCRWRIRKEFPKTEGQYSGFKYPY

[2] = molecular target: P2X purinoceptor 7 (Homo sapiens, UniProt Q99572); experiment: Binding affinity at human P2X7 receptor

IC50 [1]: 10 nM | IC50 [2]: 10 nM
Structure (SMILES): [3H]c1ccc([C@H](C)N/C(=N/C#N)Nc2cccc3ncccc23)cc1
